# pEC50: −log10 of the molar value.
# The chains behind the UniProt entries cited, without tags or fusion partners.
# UniProt Q96LA9, whole entry L83S: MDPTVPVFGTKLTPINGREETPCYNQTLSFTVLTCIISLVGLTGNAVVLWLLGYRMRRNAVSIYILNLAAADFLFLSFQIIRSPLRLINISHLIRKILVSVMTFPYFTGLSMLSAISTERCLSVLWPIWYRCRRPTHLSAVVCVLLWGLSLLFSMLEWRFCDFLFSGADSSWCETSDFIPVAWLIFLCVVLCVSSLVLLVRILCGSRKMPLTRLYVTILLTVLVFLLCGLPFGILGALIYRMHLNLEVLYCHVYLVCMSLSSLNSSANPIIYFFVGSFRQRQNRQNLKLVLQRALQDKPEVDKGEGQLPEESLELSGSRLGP
# Target: T1, MRGPRX4 (S83) (Homo sapiens, UniProt Q96LA9, L83S)
# T1 construct: expressed in transfected cells
# Test: EC50 determination, intracellular calcium mobilization in MRGPRX4 stably expressed HEK293 cells (FLIPR Calcium 5, Flexstation-3)
# Type: cell-based
substance,measurement,value
Dexamethasone palmitate,pEC50,4.21
